Only a part is listed here, and it is no random draw. The source made the active and inactive calls.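 Rule for the calls: active = calcium-response B-score plate-corrected more than 3 library SD below zero, starting fluorescence within 5 deviations, no agonist response on first addition; inactive = the rest.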

Chains of the proteins cited; added tags and fusions are not shown.
UniProt Q96LB2, whole entry: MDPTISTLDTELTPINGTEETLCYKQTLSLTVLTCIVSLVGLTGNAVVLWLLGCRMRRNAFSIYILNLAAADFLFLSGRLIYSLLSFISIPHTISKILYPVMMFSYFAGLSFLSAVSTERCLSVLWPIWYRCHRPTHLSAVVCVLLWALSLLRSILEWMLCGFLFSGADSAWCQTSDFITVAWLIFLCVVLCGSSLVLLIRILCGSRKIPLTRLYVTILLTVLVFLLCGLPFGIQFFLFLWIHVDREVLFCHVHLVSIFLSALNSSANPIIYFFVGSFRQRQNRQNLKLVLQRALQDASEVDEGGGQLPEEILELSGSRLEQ

In the experiment the target is Mas-related G-protein coupled receptor member X1 (Homo sapiens) (UniProt Q96LB2). Description: blockade of BAM8-22-evoked MrgX1 calcium response – HEK293 cells, Fluo-4 calcium flux, primary screen (AID 588676). Particulars: Fluo-4, BAM8-22 antagonism, at 10 µM. A general note: Calcium flux is commonly read through the fluorescence of an indicator in the cells.
With `c1ccc(CN2CCC(Nc3ccccc3)CC2)cc1`, the outcome was inactive.

With `CCCN1CCC(Nc2cc(OC)cc(OC)c2)CC1`, the outcome was inactive.

With `CN(C)C1(CNC(=O)c2cccc(C#N)c2)CCCCC1`, the result was inactive.

With `CC(C)(C)OC(=O)N1CCC(N(C(=O)c2ccccc2)c2ccc(Cl)cc2)CC1`, the outcome was inactive.

Turning to `N#Cc1ccc(C(=O)NCC2(N3CCCCC3)CCCCC2)cc1`, the outcome was inactive.

As to `N/C(=N\O)c1c(N)no[n+]1[O-]`, the outcome was inactive.

Regarding `CCOC(=O)N1CCC(Nc2ccc(C)cc2)CC1`, the outcome was inactive.

On to `O=C(OC1CN2CCC1CC2)C1c2ccccc2C=Cc2ccccc21` (centres undefined), for which the outcome was inactive.

For the compound `CCc1cc(C(=O)NCC2(N3CCCCC3)CCCCC2)sc1C`, the result was inactive.

Turning to `COc1ccc(C(=O)NCC2(N3CCOCC3)CCCCC2)cc1OC`, the result was inactive.

With `CCC(CO)(C(=O)OC1CN2CCC1CC2)c1ccccc1` (centres undefined), the outcome was inactive.

Consider `COc1cccc(C(=O)N(c2cc(C)cc(C)c2)C2CCN(C(=O)OC(C)(C)C)CC2)c1`, for which the result was inactive.

Turning to `COc1cc(OC)cc(C(=O)NCC2(N3CCOCC3)CCCCC2)c1`, the result was inactive.

`CCCOc1ccc(C)cc1CN(CCCl)CCCl`: the outcome was inactive.

Consider `CN1CCC(Nc2ccc(Cl)cc2)CC1`, for which the outcome was inactive.

Consider `CCOc1ncccc1C(=O)NCC1(N2CCOCC2)CCCCC1`, for which the outcome was inactive.

With `CN1CCC(Nc2ccc(F)c(Cl)c2)CC1`, the outcome was inactive.

As to `CCCOc1ccc(C(=O)NCC2(N(C)C)CCCCC2)cc1`, the result was inactive.

For `CC(C)(C)OC(=O)N1CCC(Nc2ccccc2)CC1`, the result was inactive.

On to `O=C(O)C1(Nc2ccccc2)CCN(Cc2ccccc2)CC1`, for which the result was inactive.

Turning to `CCN1CCC(Nc2cccc(F)c2)CC1`, the outcome was inactive.

In the case of `CN(C)c1ccc(C(=O)NCC2(N3CCCCC3)CCCCC2)cc1`, the result was inactive.

Take `COc1cc(OC)cc(C(=O)NCC2(N3CCCCC3)CCCCC2)c1`: the outcome was inactive.

As to `Cc1ccc(C(=O)NCC2(N3CCCCC3)CCCCC2)o1`, the outcome was inactive.

Take `Fc1ccccc1NC1CCN(Cc2ccccc2)CC1`: the outcome was inactive.

As for `COc1cc(C(=O)NCC2(N(C)C)CCCCC2)ccc1OC(F)F`, the result was inactive.

Consider `CCOC(=O)N1CCC(Nc2cccc(C)c2)CC1`, for which the outcome was inactive.

Take `Cc1ccc(OCC(C)C)c(CN(CCCl)CCCl)c1`: the outcome was inactive.

Take `CCOc1ccc(C)cc1CN(CCCl)CCCl`: the outcome was inactive.

On to `O=C(NCC1(N2CCCCC2)CCCCC1)c1ccc(F)cc1`, for which the outcome was inactive.

On to `CCOC(=O)N1CCC(Nc2ccc(F)cc2)CC1`, for which the outcome was inactive.

As for `COc1ccc(NC2CCN(CCc3ccccc3)CC2)c(OC)c1`, the result was inactive.

Regarding `O=C(NCC1(N2CCOCC2)CCCCC1)c1cc2ccccc2o1`, the outcome was inactive.

`O=C(NCC1(N2CCCCC2)CCCCC1)c1ccc(Cl)nc1`: the outcome was inactive.

Consider `Cc1cc(C)cc(N(C(=O)c2ccccc2)C2CCN(C(=O)OC(C)(C)C)CC2)c1`, for which the result was inactive.

In the case of `CCOC(=O)N1CCC(Nc2ccc(OC)cc2)CC1`, the outcome was inactive.

In the case of `O=C(OC1CN2CCC1CC2)C1c2ccccc2Oc2ccccc21` (centres undefined), the result was inactive.

As for `N#CC1(Nc2ccccc2)CCN(Cc2ccccc2)CC1`, the result was inactive.

With `O=C(NCC1(N2CCCCC2)CCCCC1)c1ccc(=O)[nH]c1`, the result was inactive.

As to `O=C(NCC1(N2CCCCC2)CCCCC1)c1cccs1`, the result was inactive.

Take `COc1ccc(C(=O)NCC2(N3CCCCC3)CCCCC2)cc1`: the outcome was inactive.

`CC(C)(C)OC(=O)N1CCC(N(C(=O)c2ccccc2)c2ccc(F)cc2)CC1`: the outcome was inactive.

For the compound `COc1ccc(C(=O)NCC2(N3CCCCC3)CCCCC2)c(OC)c1OC`, the result was inactive.

As for `CSc1ccccc1C(=O)NCC1(N2CCCCC2)CCCCC1`, the outcome was inactive.

With `CN1CCC(Nc2cccc(F)c2)CC1`, the outcome was inactive.

Turning to `CCCOc1ccc(C(=O)NCC2(N(C)C)CCCCC2)cc1OC`, the result was inactive.

On to `COc1ccc(CN(CCCl)CCCl)cc1Cl`, for which the result was inactive.

Take `CN(C)c1cccc(C(=O)NCC2(N3CCCCC3)CCCCC2)c1`: the result was inactive.

As for `CC(C)c1ccc(NC2CCN(C(=O)OC(C)(C)C)CC2)cc1`, the outcome was inactive.

Take `COc1cc(OC)c(C(=O)NCC2(N(C)C)CCCCC2)cc1OC`: the result was inactive.

For the compound `O=C(NCC1(N2CCCCC2)CCCCC1)c1cccc(C(F)(F)F)c1`, the result was inactive.

With `COc1ccc(NC2CCN(C(=O)OC(C)(C)C)CC2)cc1`, the outcome was inactive.

As for `CN1CCN(CCOC(=O)C(O)(c2ccccc2)c2ccccc2)CC1`, the result was inactive.

For the compound `O=C(NCC1(N2CCOCC2)CCCCC1)c1cc(=O)[nH]c2ccccc12`, the outcome was inactive.

On to `COc1cc(C(=O)NCC2(N3CCCCC3)CCCCC2)ccc1OC(F)F`, for which the result was inactive.

With `O=C(NCC1(N2CCCCC2)CCCCC1)c1ccc(OC(F)F)cc1`, the outcome was inactive.

Regarding `O=C(NCC1(N2CCCCC2)CCCCC1)c1cccc([N+](=O)[O-])c1`, the outcome was inactive.

With `CCN1CCC(Nc2ccc(Cl)cc2)CC1`, the outcome was inactive.

As to `N#CC1(Nc2ccccc2)CCN(CCc2ccccc2)CC1`, the outcome was inactive.

These data come from PubChem BioAssay AID588676 (Johns Hopkins Ion Channel Center, 2011).
